These compounds were tested against human ALK kinase (Homo sapiens, UniProt Q9UM73) (assay: ALK kinase inhibitory activity, mobility shift assay (MSA)). Details: at 10 nM.
Protocol: The ALK kinase inhibitory activity was measured using a mobility shift assay (MSA) provided by Carna Biosciences, Inc.
The test compound was dissolved in DMSO to prepare a 1 μM solution. The solution was further diluted 25 times with an assay buffer (20 mmol/L HEPES, 0.01% Triton (registered trademark) X-100, 1 mmol/L DTT, pH 7.5) to obtain a test compound solution.
The human ALK kinase was expressed by fusing the cytoplasmic domain (1058 to 1620 amino acids of Accession No. BAG 10812.1) with GST at the N-terminus using the baculovirus expression system. The GST-ALK was purified by glutathione sepharose chromatography. A 4-fold concentration substrate (Srctide, 1000 nmol/L)/ATP (50 μmol/L)/metal solution (Mg, 5 mmol/L) was prepared with kit buffer (20 mmol/L HEPES, 0.01% Triton (registered trademark) X-100, 5 mmol/L DTT, pH 7.5). A 2-fold concentration kinase solution was prepared with assay buffer.
In the same manner as described in Test Example 1, tests and evaluation of inhibitory activity and data analysis were performed.

Sequences of proteins named here, by UniProt entry; tags and fusion partners are left off. Residues count along the entry.
UniProt Q9UM73, 1058-1620 limits assumed: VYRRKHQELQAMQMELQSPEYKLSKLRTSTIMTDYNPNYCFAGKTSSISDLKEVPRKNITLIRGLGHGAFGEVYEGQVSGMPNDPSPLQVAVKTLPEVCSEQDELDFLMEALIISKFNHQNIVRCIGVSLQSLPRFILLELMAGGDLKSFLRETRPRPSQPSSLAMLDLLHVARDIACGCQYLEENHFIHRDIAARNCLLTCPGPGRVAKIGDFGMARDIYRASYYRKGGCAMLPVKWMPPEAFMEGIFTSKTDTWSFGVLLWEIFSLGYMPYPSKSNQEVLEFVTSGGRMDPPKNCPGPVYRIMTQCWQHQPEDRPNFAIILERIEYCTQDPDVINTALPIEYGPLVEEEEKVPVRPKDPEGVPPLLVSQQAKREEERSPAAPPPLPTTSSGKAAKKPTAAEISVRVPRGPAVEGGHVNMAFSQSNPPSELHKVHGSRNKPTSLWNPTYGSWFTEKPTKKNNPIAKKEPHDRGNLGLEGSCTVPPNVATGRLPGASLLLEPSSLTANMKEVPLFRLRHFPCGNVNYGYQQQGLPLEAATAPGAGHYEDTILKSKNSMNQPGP
UniProt Q05397, 376-1052 limits assumed: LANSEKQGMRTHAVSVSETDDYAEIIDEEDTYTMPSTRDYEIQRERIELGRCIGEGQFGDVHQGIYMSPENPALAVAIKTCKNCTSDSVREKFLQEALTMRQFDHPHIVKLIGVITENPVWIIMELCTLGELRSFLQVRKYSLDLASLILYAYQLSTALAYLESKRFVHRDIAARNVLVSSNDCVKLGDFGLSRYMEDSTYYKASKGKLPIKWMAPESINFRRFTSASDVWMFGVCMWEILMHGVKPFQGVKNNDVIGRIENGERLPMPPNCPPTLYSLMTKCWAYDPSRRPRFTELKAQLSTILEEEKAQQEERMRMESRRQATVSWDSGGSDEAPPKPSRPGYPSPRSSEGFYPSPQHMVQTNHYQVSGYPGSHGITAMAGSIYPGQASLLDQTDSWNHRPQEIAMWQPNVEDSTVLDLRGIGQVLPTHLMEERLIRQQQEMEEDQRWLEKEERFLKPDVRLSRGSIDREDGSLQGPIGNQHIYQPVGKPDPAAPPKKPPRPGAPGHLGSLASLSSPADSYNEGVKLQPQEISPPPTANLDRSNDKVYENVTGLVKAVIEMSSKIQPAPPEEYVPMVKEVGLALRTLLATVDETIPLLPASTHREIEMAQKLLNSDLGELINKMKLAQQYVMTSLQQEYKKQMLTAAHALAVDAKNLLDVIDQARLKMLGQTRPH

Compound | ALK kinase inhibition rate
Cc1cc(Nc2ncc(Cl)c(Nc3ccccc3S(=O)(=O)C(C)C)n2)c(OC(C)C)cc1C1CCN(CC(=O)NCCOCCOCCOCCOCCOCCN(C)C[C@H]2CN[C@H](C)CN2CC(=O)N2CC(C)(C)c3ncc(Cc4ccc(F)cc4)cc32)CC1 | B (75%>B≥50%)
2-(4-(4-((5-Chloro-4-((2-(isopropylsulfonyl)phenyl)amino) pyrimidin-2-yl)amino)-5-isopropoxy-2-methylphenyl)piperidin-1-yl)-N-(14-(2-((1-(2-((2R,5R)-2-(methoxymethyl)-5-methylpiperazin-1-yl)acetyl)-3,3-dimethyl-2,3-dihydro-1H-pyrrolo[3,2-b]pyridin-6-yl)methyl)phenoxy)-3,6,9, 12-tetraoxatetradecyl)acetamide | A (A Z 75%)
COC[C@H]1CN[C@H](C)CN1CC(=O)N1CC(C)(C)c2nc(CN(C)CCOCCOCCOCCOCCOCCNC(=O)CN3CCC(c4cc(OC(C)C)c(Nc5ncc(Cl)c(Nc6ccccc6S(=O)(=O)C(C)C)n5)cc4C)CC3)c(Cc3ccc(F)cc3)cc21 | A (A Z 75%)
COC[C@H]1CN[C@H](C)CN1CC(=O)N1CC(C)(C)c2nc(CN(C)CCOCCOCCNC(=O)CN3CCC(c4cc(OC(C)C)c(Nc5ncc(Cl)c(Nc6ccccc6S(=O)(=O)C(C)C)n5)cc4C)CC3)c(Cc3ccc(F)cc3)cc21 | A (A Z 75%)
COC[C@H]1CN[C@H](C)CN1CC(=O)N1CC(C)(C)c2ncc(Cc3cccc(OCCOCCOCCOCCOCCOCCNC(=O)CN4CCC(c5cc(OC(C)C)c(Nc6ncc(Cl)c(Nc7ccccc7S(=O)(=O)C(C)C)n6)cc5C)CC4)c3)cc21 | A (A Z 75%)
Cc1cc(Nc2ncc(Cl)c(Nc3ccccc3S(=O)(=O)C(C)C)n2)c(OC(C)C)cc1C1CCN(CC(=O)NCCOCCN(C)C[C@H]2CN[C@H](C)CN2CC(=O)N2CC(C)(C)c3ncc(Cc4ccc(F)cc4)cc32)CC1 | B (75%>B≥50%)

The compounds below were run against human FAK kinase (Homo sapiens, UniProt Q05397) (assay: FAK kinase inhibitory activity, mobility shift assay (MSA)). Details: at 30 nM; reaction time 5 hours.
Protocol: The FAK kinase inhibitory activity was measured using a mobility shift assay (MSA) provided by Carna Biosciences, Inc.
The test compound was dissolved in DMSO to prepare a 3 μM solution. The solution was further diluted 25 times with an assay buffer (20 mmol/L HEPES, 0.01% Triton (registered trademark) X-100, 1 mmol/L DTT, pH 7.5) to obtain a test compound solution.
Incomplete human FAK kinase was expressed by fusing 376 to 1052 amino acids of Accession No. NP_722560.1 with GST at the N-terminus using the baculovirus expression system. The GST-FAK was purified by glutathione sepharose chromatography. A 4-fold concentration substrate (Blk/Lyntide, 1000 nmol/L)/ATP (25 μmol/L)/metal solution (Mg, 5 mmol/L) was prepared with kit buffer (20 mmol/L HEPES, 0.01% Triton (registered trademark) X-100, 5 mmol/L DTT, pH 7.5). A 2-fold concentration kinase solution was prepared with assay buffer.
In the same manner as described in Test Example 1, tests and evaluation of inhibitory activity and data analysis were performed. The reaction time was set to 5 hours.

Compound | FAK kinase inhibition rate
2-(2-((((2R,5R)-1-(2-(6-(4-Fluorobenzyl)-3,3-dimethyl-2,3-dihydro-1H-pyrrolo[3,2-b]pyridin-1-yl)-2-oxoethyl)-5-methylpiperazin-2-yl)methyl)(methyl)amino)ethoxy)-N-(4-((4-((3-(methylsulfonyl)benzyl)amino)-5-(trifluoromethyl)pyrimidin-2-yl)amino)phenyl)acetamide | A (A≥75%)
COC[C@H]1CN[C@H](C)CN1CC(=O)N1CC(C)(C)c2ncc(Cc3cccc(OCCN4CCN(CCOCCOCCOCCOCC(=O)Nc5ccc(Nc6ncc(C(F)(F)F)c(NCc7cccc(S(C)(=O)=O)c7)n6)cc5)CC4)c3)cc21 | B (75%>B≥50%)
COC[C@H]1CN[C@H](C)CN1CC(=O)N1CC(C)(C)c2ncc(Cc3ccccc3OCCN3CCN(CCOCCOCCOCC(=O)Nc4ccc(Nc5ncc(C(F)(F)F)c(NCc6cccc(S(C)(=O)=O)c6)n5)cc4)CC3)cc21 | B (75%>B≥50%)
COC[C@H]1CN[C@H](C)CN1CC(=O)N1CC(C)(C)c2nc(CN3CCN(CCOCCOCC(=O)Nc4ccc(Nc5ncc(C(F)(F)F)c(NCc6cccc(S(C)(=O)=O)c6)n5)cc4)CC3)c(Cc3ccc(F)cc3)cc21 | B (75%>B≥50%)
COC[C@H]1CN[C@H](C)CN1CC(=O)N1CC(C)(C)c2nc(CN3CCN(CCOCC(=O)Nc4ccc(Nc5ncc(C(F)(F)F)c(NCc6cccc(S(C)(=O)=O)c6)n5)cc4)CC3)c(Cc3ccc(F)cc3)cc21 | A (A≥75%)
C[C@@H]1CN(CC(=O)N2CC(C)(C)c3ncc(Cc4ccc(F)cc4)cc32)[C@@H](CN(C)CCOCCOCCOCC(=O)Nc2ccc(Nc3ncc(C(F)(F)F)c(NCc4cccc(S(C)(=O)=O)c4)n3)cc2)CN1 | A (A≥75%)

Reference: patent US20260384424A1, “HETEROCYCLIC COMPOUND” (published 2026)
